Experimental data: PubChem BioAssay AID720523 (National Center for Advancing Translational Sciences (NCATS), 2013)
The list shows a part of the results, in another mix than the full data. Inconclusive results are not listed. Active and inactive are the calls of the source. Calls come from the whole dose curve; as a rule, active = well fitted inhibition curve with a large enough effect; inconclusive = small, poorly fitted or top-dose-only effect; inactive = flat fitted curve, though single readings scatter.

test: Nrf2 qHTS screen for inhibitors: A549 ARE-Fluc Cytotoxicity Counterscreen for Hit Validation; details: A549 ARE-Fluc cells; at 46.1 µM (top of the series);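 note: cells exposed to compounds for 18 to 24 hours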
Description: Nrf2 is a transcription factor that maintains cellular redox homoestasis and protects cells from xenobiotics. Nrf2 binds to the antioxidant response element (ARE) to induce gene expression of a broad spectrum of genes that encode for antioxidants. […] Finding a small molecule that act as an inhibitor of Nrf2 function would represent a novel therapeutic target that could lead to improvement in survival of patients undergoing chemo- and/or radio- therapy.
In collaboration with the Biswal laboratory, a cell based, luminescence assay (BugLite) was developed to detect the Nrf2 activity using the A549 ARE_Fluc cells (AID 504648). This assay was coupled with a fluorescence based (CellTiter Fluor) cytotoxicity assay to identify and exclude toxic compounds. […] The data herein is the result of the CellTiter Fluor assay where decrease in fluorescence signal = cytotoxicity. […]
Five uL of cell suspension was dispensed into 1536-well white TC-treated plate using the Kalypsys dispenser to achieve a density of 5000 cells/well in all columns except column 1. […] The fluorescence signal was read using the PerkinElmer ViewLux plate reader (Ex = 405 nm /Em = 525 nm) for a 3 second exposure. […] A second ViewLux read (40 sec exposure) was performed to detect the luminescence signal. Cytotoxicity was assessed through the first fluorescent read while biochemical activity against Nrf2 was measured in the luminescent read. […]
% is set by controls: 0 for no effect and ±100 for the full control effect.

| SMILES | activity change, negative = cytotoxicity |
| --- | --- |
| CC1=CC2OC3CC4OC(=O)C=CC=CC(=O)OCCC(C)C(O)C(=O)OCC2(CC1O)C4(C)C31CO1 (stereo unspecified) | inactive: 63.1% |
